Values of other authors in US9585878B2, “Treatment of BDNF-related disorders using laquinimod” (TEVA PHARMACEUTICAL INDUSTRIES, LTD., priority 2009, dated 2017).

Tested on: BDNF
Settings: MS patients, even after 12 months of treatment; cited from earlier work

B1: interferon-β 1a: MS treatment cited from Sarchielli, 2007 (protein, UniProt P01574 22-187, looked up)
Interferon beta: MSYNLLGFLQRSSNFQCQKLLWQLNGRLEYCLKDRMNFDIPEEIKQLQQFQKEDAALTIYEMLQNIFAIFRQDSSSTGWNETIVENLLANVYHQINHLKTVLEEKLEKEDFTRGKLMSSLHLKRYYGRILHYLKAKEYSHCAWTIVRVEILRNFYFINRLTGYLRN
Increase in plasma BDNF levels: did not show an increase
